# Antibody variant affinities, Ab-91 heavy chain, assay 2

From the AlphaSeq antibody data of Engelhart et al. 2022 (doi:10.1038/s41597-022-01779-4), copy in the FLAb collection.

Target peptide (SARS-CoV-2 spike, HR2 region): PDVDLGDISGINAS

The variants keep the light chain, the linker and the frameworks of Ab-91 (scFv order VL, a 15-residue (Gly4Ser)3 linker, VH).
VL: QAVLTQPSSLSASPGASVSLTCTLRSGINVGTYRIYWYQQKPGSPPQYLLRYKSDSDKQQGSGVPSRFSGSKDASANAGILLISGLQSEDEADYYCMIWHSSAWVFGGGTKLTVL
VH: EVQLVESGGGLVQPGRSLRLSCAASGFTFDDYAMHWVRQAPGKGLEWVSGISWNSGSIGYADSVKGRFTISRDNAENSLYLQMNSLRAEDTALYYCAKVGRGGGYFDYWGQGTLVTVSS

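The starting antibody came from a phage panning campaign against this peptide. In library AAYL51, one, two or three CDR residues were substituted; doubles and triples were drawn at random. In AlphaSeq, yeast of one mating type display the scFv and yeast of the other type display the target. After mating in shaken culture at 30 °C for 16 h, diploids were selected and their barcode pairs sequenced. A regression on co-assayed BCL2-family reference pairs converts the normalised counts of each replicate to an apparent Kd. Mating was done three times.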

Sequences are complete VH domains. The read-out is the apparent dissociation constant on a log10 scale (nM): the lower, the stronger. Averages over replicates are reported, and they cover detected replicates only. A pair that was not seen in any replicate is written "nd"; this usually means weak binding, but a binder can also be missed. Three control strains display no target. For library AAYL51, 21% of the pairings with them gave a signal, with a median of 4.54 and one signal in twenty below 3.26, so weak values seen in few replicates may be background.

| # | VH | mean, log10 nM | detected |
|---|---|---|---|
| 1 | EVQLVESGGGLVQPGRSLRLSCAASGFTFDDYHPHWVRQAPGKGLEWVSGISWNSGSIKYADSVKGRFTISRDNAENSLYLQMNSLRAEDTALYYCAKVGRGGGYFDYWGQGTLVTVSS | nd | 0/3 |
| 2 | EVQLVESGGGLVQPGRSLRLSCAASGFTFDDYAMHWVRQAPGKGLEWVSGISWNSGSIGYADSVKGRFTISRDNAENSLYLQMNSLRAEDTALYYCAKTGRGGGYTDYWGQGTLVTVSS | 5.83 | 1/3 |
| 3 | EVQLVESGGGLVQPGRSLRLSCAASGFTFDDYAMHWVRQAPGKGLEWVSGISWNSTSIGYADSVKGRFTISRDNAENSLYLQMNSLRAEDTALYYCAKVGRGGGYFFAWGQGTLVTVSS | 4.75 | 1/3 |
| 4 | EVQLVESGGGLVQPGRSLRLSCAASGCTFDDYQMHWVRQAPGKGLEWVSGIMWNSGSIGYADSVKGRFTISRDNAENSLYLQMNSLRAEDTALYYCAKVGRGGGYFDYWGQGTLVTVSS | 3.67 | 1/3 |
| 5 | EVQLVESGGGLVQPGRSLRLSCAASGFTFDDYAMHWVRQAPGKGLEWVSGSSWNSGSIGYEDSVKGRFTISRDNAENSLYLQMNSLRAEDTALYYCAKFGRGGGYFDYWGQGTLVTVSS | 4.68 | 1/3 |
| 6 | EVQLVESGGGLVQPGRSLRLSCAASGFTFDDYAMHWVRQAPGKGLEWVSGISWNSGLIGYADSVKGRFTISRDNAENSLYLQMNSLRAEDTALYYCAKVNRGGGYFDIWGQGTLVTVSS | 4.43 | 2/3 |
| 7 | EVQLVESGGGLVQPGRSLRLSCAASGFTFISYAMHWVRQAPGKGLEWVSGIMWNSGSIGYADSVKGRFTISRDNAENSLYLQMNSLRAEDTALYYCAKVGRGGGYFDYWGQGTLVTVSS | 5.83 | 2/3 |
| 8 | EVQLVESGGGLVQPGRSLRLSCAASGFVFDDYAMHWVRQAPGKGLEWVSGISKNSGSIGYADSVKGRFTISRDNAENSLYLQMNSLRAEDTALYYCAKVPRGGGYFDYWGQGTLVTVSS | 4.61 | 1/3 |
| 9 | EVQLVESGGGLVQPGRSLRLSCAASGFTFDDYAMHWVRQAPGKGLEWVSGESWNSGSIGYADSVKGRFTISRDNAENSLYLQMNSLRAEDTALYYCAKVGRGEGTFDYWGQGTLVTVSS | 3.70 | 1/3 |
| 10 | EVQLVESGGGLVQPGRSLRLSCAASGFTFDDYAMHWVRQAPGKGLEWVSGISWFSGSDGYADSVKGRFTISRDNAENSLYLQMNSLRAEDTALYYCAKVSRGGGYFDYWGQGTLVTVSS | nd | 0/3 |

Second part, the sequence after the result:

| # | mean, log10 nM | detected | VH |
|---|---|---|---|
| 11 | 4.88 | 1/3 | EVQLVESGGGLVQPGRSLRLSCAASGFTFDDYAMDWVRQAPGKGLEWVSGISWNSGSIGYADSVKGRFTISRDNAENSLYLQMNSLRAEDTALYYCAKVGRCGGSFDYWGQGTLVTVSS |
| 12 | 4.22 | 1/3 | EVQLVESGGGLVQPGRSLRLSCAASGFTFDDYGMIWVRQAPGKGLEWVSGISWNSGSIHYADSVKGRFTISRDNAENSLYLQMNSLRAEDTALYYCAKVGRGGGYFDYWGQGTLVTVSS |
| 13 | 4.85 | 3/3 | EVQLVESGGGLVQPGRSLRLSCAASGFTFDDYFMHWVRQAPGKGLEWVSGISWNSGSIGYADSDKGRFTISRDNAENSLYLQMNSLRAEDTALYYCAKVGRGGGYFQYWGQGTLVTVSS |
| 14 | 4.57 | 2/3 | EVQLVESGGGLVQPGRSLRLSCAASGFTFDDSAMHWVRQAPGKGLEWVSGISWNSGSICYNDSVKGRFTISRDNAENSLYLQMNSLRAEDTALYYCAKVGRGGGYFDYWGQGTLVTVSS |
| 15 | 1.92 | 3/3 | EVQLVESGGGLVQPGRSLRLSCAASGFVFDDYAMHWVRQAPGKGLEWVSGISWNSGSIGMADSMKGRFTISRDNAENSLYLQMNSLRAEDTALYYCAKVGRGGGYFDYWGQGTLVTVSS |
| 16 | 3.25 | 1/3 | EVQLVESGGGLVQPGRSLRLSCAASGFTFDDYAMHWVRQAPGKGLEWVSGISWNSGSIEYADSVKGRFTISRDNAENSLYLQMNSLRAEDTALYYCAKVGWGGGYLDYWGQGTLVTVSS |
| 17 | 6.12 | 1/3 | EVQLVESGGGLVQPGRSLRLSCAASGFTFDDYAMDWVRQAPGKGLEWVSGICWNSGSIGYADSVKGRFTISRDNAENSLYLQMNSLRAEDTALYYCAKVIRGGGYFDYWGQGTLVTVSS |
| 18 | nd | 0/3 | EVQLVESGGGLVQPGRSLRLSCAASGFTFDDYKMHWVRQAPGKGLEWVSGIKWNSGSIGYADSVKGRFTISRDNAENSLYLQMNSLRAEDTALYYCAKVGRGGGYFDYWGQGTLVTVSS |
| 19 | 5.37 | 3/3 | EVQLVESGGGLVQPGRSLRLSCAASGFCFDDYAMHWVRQAPGKGLEWVSEISWNSGSIGYADSVKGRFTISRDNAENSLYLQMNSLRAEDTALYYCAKVGRGGGYEDYWGQGTLVTVSS |
| 20 | nd | 0/3 | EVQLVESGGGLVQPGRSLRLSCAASGFTFDDLAMHWVRQAPGKGLEWVSGISWNSWSIGYADSVKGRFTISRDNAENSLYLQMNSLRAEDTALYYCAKVGRGGGYFDAWGQGTLVTVSS |

The first 2 entries again:

VH	mean, log10 nM	detected
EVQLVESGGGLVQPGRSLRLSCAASGFTFDDYHPHWVRQAPGKGLEWVSGISWNSGSIKYADSVKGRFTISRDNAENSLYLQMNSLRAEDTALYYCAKVGRGGGYFDYWGQGTLVTVSS	nd	0/3
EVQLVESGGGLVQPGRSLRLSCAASGFTFDDYAMHWVRQAPGKGLEWVSGISWNSGSIGYADSVKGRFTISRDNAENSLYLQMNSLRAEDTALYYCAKTGRGGGYTDYWGQGTLVTVSS	5.83	1/3